The values that follow are results of earlier work, collected in patent US20260373185A1, “METHODS FOR SEQUENTIALLY ADMINISTERING TAS-102 AND BCL-2 INHIBITOR FOR CANCER TREATMENT” (Health Research, Inc., priority 2023, published 2026).

Where only a bound is given, the exact number is not on record here.

As usually defined, the Ki is the dissociation constant of the complex between target and ligand, obtained from inhibition or displacement.

The target in this data set is BCL-2. As to conditions: cell-free assays.

On to `CC1(C)CCC(c2ccc(Cl)cc2)=C(CN2CCN(c3ccc(C(=O)NS(=O)(=O)c4ccc(N[C@H](CCN5CCOCC5)CSc5ccccc5)c(S(=O)(=O)C(F)(F)F)c4)cc3)CC2)C1` [Navitoclax], for which the Ki is at most 1 nM.
